# esBAF inh: blocks esBAF chromatin remodeling in mouse ES cells; Bmi1-luciferase knock-in reporter, 24 h; 100% = twice the neutral-well signal; AID 602393; reporter increase, % at 12.5 µM; 350,000 tested, 2% active; in the data active = activation above about 40%; inconclusive = no clear call, values can overlap the other calls;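 note: 0% = median of the plate's neutral control wells and 100% = double that signal; a rise in the Bmi1 reporter signal indicates esBAF inhibition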
# Wnt act: Wnt/beta-catenin pathway activation; Wnt/beta-catenin reporter cell assay, activator, plate reader; activation, % at 9.35 µM; 300,000 tested, 1.2% active; AID 743398; in the data active = activation above about 30%, passing the limit was not always enough; inconclusive = no clear call, values can overlap the other calls;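 note: 0% = neutral control wells and 100% = positive control wells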
# MITF act: increases MITF-driven TRPM1 promoter luciferase signal; SK-MEL-5 TRPM1-promoter luciferase, 24 h; % of positive control, neutral wells = 0; activation, % at 12.5 µM; 300,000 tested, 0.75% active;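 active = mean activation of at least 80% with every replicate also reaching 80%; inconclusive = mean reaches 80% but some replicate falls short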;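 note: 0% = neutral control wells and 100% = parthenolide positive control wells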
# miR122 inh: miR-122 inhibition in Huh7 cells | Huh7 miR-122 Renilla luciferase sensor, 48 h; neutral wells = 0, positive control = 100 | activation (reporter increase), % at 12.5 µM | 340,000 tested, 0.3% active;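 active = mean replicate activation score at least 90 and every replicate individually at or above 90; inconclusive = only one of the two criteria met; inactive = neither criterion met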;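 note: higher luciferase means less miR-122 activity so hits act as miR-122 inhibitors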
# UUG fidelity: modulators of yeast start codon fidelity, primary screen, whole organism, S. cerevisiae, single point, plate reader; S. cerevisiae UUG-firefly luciferase reporter, luminescence/redox ratio; activity score, % at 18.7 µM; actives 0.13% (n = 350,000); AID 602363, 2012;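 active = replicate mean at a twofold rise or more, about +100% in these data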;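 also: firefly luciferase made from a UUG start codon reports start codon fidelity; reporter light over untreated wells divided by growth signal over untreated wells; some hits fall short of that in this replicate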
# PglD DTNB: blocks C. jejuni PglD acetyltransferase activity; purified PglD enzyme, DTNB colorimetric CoA detection; inhibition, % at 12.5 µM; 360,000 tested, 0.098% active; AID 602405; in the data active = inhibition above about 16%, passing the limit was not always enough; inconclusive = no clear call, values can overlap the other calls
# An asterisk follows results filed as active; ? = inconclusive; nt = not tested or not shown; [ ] = another dose, or the depositor's remark. Hits are enriched below; roughly 2.8% of the tested compounds scored in any of these assays.
# Results follow in this order: miR122 inh, esBAF inh, UUG fidelity, MITF act, PglD DTNB, Wnt act
[1] COC(=O)C(CCSC)NC(=O)c1cccc([N+](=O)[O-])c1 (stereo unspecified)
 : 0.3, -2.4, -16.7, -14.3, 7.3, nt
[2] CCSc1ncccc1C(=O)N[C@@H](CCSC)C(=O)OC
 : -5.7, nt, -14.5, nt, 6.0, 45.3*
[3] Cc1ccc(/C=C/C(=O)Nc2ccc(N(C)C)cc2)o1
 : -2.4, 52.0*, 9.0, 114.9*, 3.2, nt
[4] Cc1ccc(/C=C/C(=O)Nc2nccs2)o1
 : -1.3, 59.9*, -18.9, 29.9, -2.7, -2.6
[5] Cc1cnc(NC(=O)/C=C/c2ccc(Br)o2)s1
 : -7.9, 32.4, -6.4, 29.3, 2.9, 8.8
[6] Cc1ccc(/C=C/C(=O)Nc2ncc(C)s2)o1
 : nt, nt, nt, 100.6*, nt, -1.2
[7] C[C@@H]1CN([C@H](C)CO)C(=O)c2cc(NC(=O)Nc3ccc4c(c3)OCO4)ccc2O[C@H]1CN(C)Cc1ccccc1
 : 5.8[16.7 µM], -1.5, -13.8, nt, -1.1, nt
[8] O=C(/C=C/c1ccco1)Nc1ccc(-c2nc3ccccc3[nH]2)cc1
 : 101.0*, nt, -12.5, -5.2, 5.0, -35.4
[9] C(=C\c1ccco1)/c1nc2ccccc2[nH]1
 : nt, nt, nt, -1.9, nt, 51.9*
[10] Cn1c(N)c(C(=O)COC(=O)c2cc(S(=O)(=O)N3CCOCC3)ccc2F)c(=O)n(C)c1=O
 : -0.7, 5.2, 8.0, -82.2, -1.4, 95.9*
[11] COc1ccc(S(=O)(=O)N(C)C[C@@H]2Oc3ccc(NC(=O)Nc4ccc(C(F)(F)F)cc4)cc3CC(=O)N([C@H](C)CO)C[C@@H]2C)cc1
 : -13.7[16.7 µM], -0.4, -4.3, nt, -0.3, nt
[12] C/C(=N/O)c1cccc(N2Cc3ccccc3C2)c1
 : 11.5, 62.7*, -13.4, 9.1, -8.1, 8.7
[13] Cn1c(=O)c2c(nc(SCCN3CCOCC3)n2Cc2ccc(F)cc2)n(C)c1=O
 : nt, 56.4*, -9.4, 51.6, 0.5, nt
[14] C[C@H]1CN([C@@H](C)CO)C(=O)c2cc(-c3cccc(C(=O)N(C)C)c3)cnc2O[C@@H]1CN(C)S(=O)(=O)c1ccccc1
 : nt, -2.0, 5.8, nt, 0.5, nt
[15] COc1ccc(N2Cc3ccc(OC)c(OC)c3C2=O)cc1
 : 5.8, 38.2, -11.9, 86.4*, 2.3, -1.3
[16] CCOC(=O)c1ccc(NC(=O)c2ccco2)cc1
 : -9.3, 71.8*, -9.7, 75.2, -0.8, 21.3
[17] CCOc1ccc(NC(=S)NC(=O)c2ccco2)cc1
 : 0.3, ?, -19.3, 89.3*, -1.9, 12.5
[18] COC(=O)c1ccc(NC(=O)c2cccc(NC(=O)c3ccco3)c2)cc1
 : 8.5, -9.7, -10.7, nt, -1.7, -1.8
[19] CCOC(=O)c1ccc(NC(=O)c2nn(C)cc2Br)cc1
 : -3.6, 51.3*, -21.7, 83.4*, 3.9, 1.0
[20] CCOc1ccc(NC(=O)c2ccco2)cc1
 : -1.5, -4.6, -46.5, 35.7, -0.7, nt
[21] CC(C)OC(=O)c1ccc(NC(=O)c2ccco2)cc1
 : -1.5, 60.6*, 5.7, 109.7*, 7.6, 19.2
[22] CCOC(=O)c1ccc(NC(=O)c2nn(CC)cc2Br)cc1
 : -1.8, 30.0, -7.2, 50.2, 2.2, nt
[23] C[C@@H]1CN([C@H](C)CO)C(=O)c2cc(NC(=O)CCC(F)(F)F)ccc2O[C@@H]1CN(C)S(=O)(=O)c1ccccc1
 : 61.3[16.7 µM], -0.7, -93.0, nt, 0.8, nt
[24] COCCNC(=O)C[C@@H]1CC[C@@H](NS(=O)(=O)c2ccc(C)cc2)[C@@H](CO)O1
 : nt, -0.3, 2.5, nt, 5.9, nt
[25] CO[C@H]1CN(C)C(=O)c2ccc(NC(=O)Nc3ccccc3)cc2OC[C@@H](C)N(C(=O)CC2CC2)C[C@H]1C
 : -9.4[16.7 µM], 2.3, 4.5, nt, 0.5, nt
[26] O=C(Cc1ccccn1)NCC[C@@H]1CC[C@@H](NC(=O)Nc2ccc(F)cc2)[C@@H](CO)O1
 : nt, -6.7, 0.3, nt, 7.0, nt
[27] Cc1noc(C)c1NC(=O)N(C)C[C@H]1Oc2c(NS(=O)(=O)c3c(C)noc3C)cccc2C(=O)N([C@@H](C)CO)C[C@H]1C
 : 0.3[16.7 µM], -3.3, -1.4, nt, -0.2, nt
[28] CCOC(=O)c1ccc(NC(=O)N(CC)CC)cc1
 : 5.6, -29.2, -15.2, 39.2, -3.9, 49.3*
[29] COC(=O)c1c(NC(=O)c2ccco2)sc(C(=O)Nc2ccc(F)cc2)c1C
 : nt, nt, nt, 109.4*, nt, 25.4
[30] COC(=O)c1c(NC(=O)c2ccco2)sc(C)c1C
 : 0.8, 4.9, -18.7, 0.9, 1.1, 6.6
[31] CC(C)NC(=O)N(C)C[C@H]1Oc2ccc(NC(=O)Nc3cccc4ccccc34)cc2CC(=O)N([C@@H](C)CO)C[C@H]1C
 : -5.2[16.7 µM], 2.0, -49.4, nt, 4.7, nt

# Some of these compounds in order of the Wnt act value, rising.
# Results follow in this order: miR122 inh, esBAF inh, UUG fidelity, MITF act, PglD DTNB, Wnt act
[21] CC(C)OC(=O)c1ccc(NC(=O)c2ccco2)cc1
 : -1.5, 60.6*, 5.7, 109.7*, 7.6, 19.2
[29] COC(=O)c1c(NC(=O)c2ccco2)sc(C(=O)Nc2ccc(F)cc2)c1C
 : nt, nt, nt, 109.4*, nt, 25.4
[28] CCOC(=O)c1ccc(NC(=O)N(CC)CC)cc1
 : 5.6, -29.2, -15.2, 39.2, -3.9, 49.3*

# Screening results as filed in PubChem.
